Experimental findings from ChEMBL document CHEMBL1128860, “5-O-Carboxymethyl piperazide derivatives of serotonin: a new class of potent and selective 5-HT1D receptor agonists” (Bioorg Med Chem Lett, 1995) are described below.

Chains of the proteins cited; added tags and fusions are not shown.
UniProt P08908, whole entry: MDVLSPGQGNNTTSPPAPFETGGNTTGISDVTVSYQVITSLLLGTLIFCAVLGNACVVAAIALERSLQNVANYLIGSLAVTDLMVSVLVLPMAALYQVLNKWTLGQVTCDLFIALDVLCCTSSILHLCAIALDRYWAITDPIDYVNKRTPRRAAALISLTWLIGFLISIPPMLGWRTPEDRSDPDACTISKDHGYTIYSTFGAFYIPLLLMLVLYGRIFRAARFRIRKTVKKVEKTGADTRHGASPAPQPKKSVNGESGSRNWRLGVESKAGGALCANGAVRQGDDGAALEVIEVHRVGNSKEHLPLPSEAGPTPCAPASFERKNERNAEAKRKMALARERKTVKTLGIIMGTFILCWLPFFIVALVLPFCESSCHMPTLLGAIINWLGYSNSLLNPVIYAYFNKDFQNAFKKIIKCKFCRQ

Assay [1] addresses T1, 5-hydroxytryptamine receptor 1A (Homo sapiens, UniProt P08908). The experiment in a line: Binding affinity towards cloned human 5-hydroxy tryptamine 1A (5-HT1A) receptor was determined.
Assay [2] addresses T1, 5-hydroxytryptamine receptor 1A. The experiment in a line: Compound was tested for its ability to inhibit forskolin-stimulated activity of adenylate cyclase coupled to human 5-HT 1A receptor in HeLa cells; value ranges from 50-550. The assay is classed as functional, cell-based.

For orientation: Ki means the dissociation constant of the complex between target and ligand, obtained from inhibition or displacement. The low end stands for a stronger hold on the target, the high end for a looser hold on the target. In general, EC50 refers to the concentration at which the effect is half-maximal. In the case of `NCCc1c[nH]c2ccc(OCC(=O)N3CCN(c4ccccc4)CC3)cc12`, the affinity in assay [1] corresponds to a Ki of 11.4 nM. The EC50 in assay [2] was determined as 50 nM.
